Experimental data published in article PMC6540747 (The AAPS journal, 2017).
Read-outs that look alike come from different tables or passages of the source.

Key:
[1] = test system: gut MPS and liver MPS on-platform
[2] = test system: gut MPS and liver MPS on-platform; test: Drug and metabolite concentration-time profiles on the multi-MPS platform; details: Liver only arm; three-day experiment

metabolism on-platform (in words) [1]: minimal | metabolism on-platform (in words) [2]: substantial
Structure (SMILES): O=C(O)Cc1ccccc1Nc1c(Cl)cccc1Cl [DCF, diclofenac]
